The values that follow come from patent US8022102B2, “Unsaturated tetracyclic tetrahydrofuran derivatives” (Janssen Pharmaceutica, NV, priority 2004, dated 2011).

Protein sequences, listed by entry. Tags and fused reporters are not part of them. Residues count along the entry.
UniProt Q9WTR4, 1-597: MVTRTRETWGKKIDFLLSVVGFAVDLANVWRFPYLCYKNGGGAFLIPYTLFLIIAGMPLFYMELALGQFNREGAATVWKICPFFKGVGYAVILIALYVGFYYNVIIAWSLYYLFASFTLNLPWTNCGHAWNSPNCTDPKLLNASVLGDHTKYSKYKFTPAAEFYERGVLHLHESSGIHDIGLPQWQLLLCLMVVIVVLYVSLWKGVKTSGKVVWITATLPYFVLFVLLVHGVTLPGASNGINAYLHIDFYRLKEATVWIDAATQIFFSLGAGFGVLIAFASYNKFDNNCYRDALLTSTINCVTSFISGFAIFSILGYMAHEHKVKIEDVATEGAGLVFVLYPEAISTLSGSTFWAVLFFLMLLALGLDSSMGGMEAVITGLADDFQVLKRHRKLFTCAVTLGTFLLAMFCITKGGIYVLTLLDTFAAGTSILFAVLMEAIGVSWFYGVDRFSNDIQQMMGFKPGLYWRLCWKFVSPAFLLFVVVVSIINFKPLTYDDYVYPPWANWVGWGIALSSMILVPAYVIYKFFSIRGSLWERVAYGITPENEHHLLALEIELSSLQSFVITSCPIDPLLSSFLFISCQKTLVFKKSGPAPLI

In the assay the target is T1, NET (Rattus norvegicus, UniProt Q9WTR4).
T1 construct: Cortex from rat brain was collected and homogenised; from tissue; host or cells: rat brain cortex
Briefly: In vitro determination of NET reuptake inhibition ([3H]Nixosetine binding, rat brain cortex). The conditions noted are these: read-out: NET Reuptake Inhibition (converted). The method, then: Cortex from rat brain was collected and homogenised using an Ultra-Turrax T25 and a Dual homogeniser in ice-cold homogenising buffer containing Tris, NaCl and KCl (50 mM, 120 mM and 5 mM, respectively, pH 7.4) prior to dilution to an appropriate protein concentration optimised for specific and non-specific binding. […] Membrane-bound activity was detected by filtration through a Packard Filtermate harvester onto GF/B Unifilterplates, washed with ice-cold Tris-HCl buffer, containing NaCl and KCl (50 mM, 120 mM and 4 mM; pH 7.4; 6×0.5 ml). Filters were allowed to dry for 24 h before adding scintillation fluid. Scintillation fluid was allowed to saturate filters for 24 h before counting in a Topcount scintillation counter. Percentage specific bound and competition binding curves were calculated using S-Plus software (Insightful).
Turning to `CNCC1CC2=C(O1)c1cc(F)ccc1Sc1ccccc12` (single isomer, unassigned) [Compound 13], the IC50 is 6.31 nM.

Take `CN(C)CC1CC2=C(O1)c1ccccc1Cc1ccccc12` (single isomer, unassigned) [Compound 23]: the IC50 was 631 nM.

Consider `CN(C)CC1CC2=C(O1)c1ccccc1Cc1ccccc12` (single isomer, unassigned) [Compound 24], for which the IC50 was 31.6 nM.

Take `CNCC1CC2=C(O1)c1cc(Br)ccc1Cc1ccccc12` (stereo not drawn) [Compound 5]: the IC50 was 251 nM.

Turning to `CNCC1CC2=C(O1)c1cc(F)ccc1C(C)c1ccccc12` (stereo not drawn) [Compound 8], the IC50 was 39.8 nM.

In the case of `CCNCC1CC2=C(O1)c1cc(F)ccc1Sc1ccccc12` (stereo not drawn) [Compound 18], the IC50 was 3.16 nM.

`OCCNCC1CC2=C(O1)c1cc(F)ccc1Cc1ccccc12` (stereo not drawn) [Compound 19]: the IC50 is 39.8 nM.

As for `CN(C)CC1CC2=C(O1)c1ccccc1Oc1ccccc12` (stereo not drawn) [Compound 25], the IC50 was 251 nM.

As to `CN(CCO)CC1CC2=C(O1)c1cc(F)ccc1Oc1ccccc12` (stereo not drawn) [Compound 32], the IC50 is 200 nM.

As to `OC1CCN(CC2CC3=C(O2)c2cc(F)ccc2Cc2ccccc23)C1` (stereo not drawn) [Compound 33], the IC50 is 1260 nM.

Take `OC1CCCN(CC2CC3=C(O2)c2cc(F)ccc2Cc2ccccc23)C1` (stereo not drawn) [Compound 37]: the IC50 is 3980 nM.

As to `OCCC1CCN(CC2CC3=C(O2)c2cc(F)ccc2Cc2ccccc23)CC1` (stereo not drawn) [Compound 38], the IC50 was 3980 nM.

Regarding `COc1cc2c(cc1OC)CN(CC1CC3=C(O1)c1cc(F)ccc1Cc1ccccc13)CC2` (stereo not drawn) [Compound 40], the IC50 is 3980 nM.

Take `OCCN1CCN(CC2CC3=C(O2)c2cc(F)ccc2Cc2ccccc23)CC1` (stereo not drawn) [Compound 41]: the IC50 was 7940 nM.

For `OCCN1CCN(CC2CC3=C(O2)c2cc(F)ccc2Sc2ccccc23)CC1` (stereo not drawn) [Compound 42], the IC50 was > 10000 nM.

For `CS(=O)(=O)N1CCN(CC2CC3=C(O2)c2cc(F)ccc2Oc2ccccc23)CC1` (stereo not drawn) [Compound 45], the IC50 is 1000 nM.

For the molecule `O=S(=O)(Cc1ccccc1)N1CCN(CC2CC3=C(O2)c2cc(F)ccc2Cc2ccccc23)CC1` (stereo not drawn) [Compound 51], the IC50 was > 10000 nM.

Consider `O=S(=O)(Cc1ccccc1)N1CCN(CC2CC3=C(O2)c2cc(F)ccc2Oc2ccccc23)CC1` (stereo not drawn) [Compound 52], for which the IC50 was 1000 nM.

Take `CC(=O)N1CCN(CC2CC3=C(O2)c2cc(F)ccc2Cc2ccccc23)CC1` (stereo not drawn) [Compound 53]: the IC50 was 2000 nM.

For the molecule `CCCC(=O)N1CCN(CC2CC3=C(O2)c2cc(F)ccc2Cc2ccccc23)CC1` (stereo not drawn) [Compound 55], the IC50 is 2510 nM.

Regarding `CCCC(=O)N1CCN(CC2CC3=C(O2)c2cc(F)ccc2Oc2ccccc23)CC1` (stereo not drawn) [Compound 56], the IC50 was 1580 nM.

For the molecule `O=C(C1CC1)N1CCN(CC2CC3=C(O2)c2cc(F)ccc2Cc2ccccc23)CC1` (stereo not drawn) [Compound 57], the IC50 was 5010 nM.

With `COC(=O)CC(=O)N1CCN(CC2CC3=C(O2)c2cc(F)ccc2Cc2ccccc23)CC1` (stereo not drawn) [Compound 59], the IC50 was > 10000 nM.

On to `CCOC(=O)N1CCN(CC2CC3=C(O2)c2cc(F)ccc2Cc2ccccc23)CC1` (stereo not drawn) [Compound 61], for which the IC50 is 3160 nM.

As to `CCOC(=O)N1CCN(CC2CC3=C(O2)c2cc(F)ccc2Oc2ccccc23)CC1` (stereo not drawn) [Compound 62], the IC50 was > 10000 nM.

Regarding `COc1ccc(C(=O)N2CCN(CC3CC4=C(O3)c3cc(F)ccc3Oc3ccccc34)CC2)cc1` (stereo not drawn) [Compound 74], the IC50 is 794 nM.

For `CN(C)C(=O)N1CCN(CC2CC3=C(O2)c2cc(F)ccc2Cc2ccccc23)CC1` (stereo not drawn) [Compound 75], the IC50 is > 10000 nM.

`CN(C)C(=O)N1CCN(CC2CC3=C(O2)c2cc(F)ccc2Oc2ccccc23)CC1` (stereo not drawn) [Compound 76]: the IC50 was 2000 nM.

Turning to `O=C(NC1CCCCC1)N1CCN(CC2CC3=C(O2)c2cc(F)ccc2Oc2ccccc23)CC1` (stereo not drawn) [Compound 80], the IC50 was 1580 nM.

On to `CCOC(=O)CNC(=O)N1CCN(CC2CC3=C(O2)c2cc(F)ccc2Oc2ccccc23)CC1` (stereo not drawn) [Compound 82], for which the IC50 was 2000 nM.
